# Earlier results in PMC7666069 (Journal of medicinal chemistry, 2020).
# Tested on: male mice
# Settings: 34 days of 15 or 30 mg/kg daily; cited from earlier work
compound,measurement,value
"C=C(C)[C@@H]1CCC(C)=C[C@H]1c1c(O)cc(CCCCC)cc1O [CBD, Cannabidiol]","reproductive toxicity (testosterone, spermatogenesis, daily sperm production, sperm morphology)",significant changes in several measures of reproductive health
